# Results reported in ChEMBL document CHEMBL1127317 (J Med Chem, 1994).
# Experiment: Cytotoxic concentration in vitro in well-oxygenated mammalian cells
row,Structure (SMILES),IC50 [µM]
1,NC(=O)c1cc(N(CCCl)CCCl)c(N)cc1[N+](=O)[O-],10
2,Nc1ccc(N(CCCl)CCCl)cc1,0.07
